Biological target: T1, rat mGlu1a receptor (Rattus norvegicus, UniProt P23385)
T1 construct: host or cells: CHO-dhfr- cells
Assay: [3H]Compound A binding to rat mGlu1a receptor CHO-dhfr− membranes (saturation, kinetics, inhibition)
Settings: 30 min incubation, n=3

The chains behind the UniProt entries cited, without tags or fusion partners. Residues count along the entry.
UniProt P23385, 19-1199: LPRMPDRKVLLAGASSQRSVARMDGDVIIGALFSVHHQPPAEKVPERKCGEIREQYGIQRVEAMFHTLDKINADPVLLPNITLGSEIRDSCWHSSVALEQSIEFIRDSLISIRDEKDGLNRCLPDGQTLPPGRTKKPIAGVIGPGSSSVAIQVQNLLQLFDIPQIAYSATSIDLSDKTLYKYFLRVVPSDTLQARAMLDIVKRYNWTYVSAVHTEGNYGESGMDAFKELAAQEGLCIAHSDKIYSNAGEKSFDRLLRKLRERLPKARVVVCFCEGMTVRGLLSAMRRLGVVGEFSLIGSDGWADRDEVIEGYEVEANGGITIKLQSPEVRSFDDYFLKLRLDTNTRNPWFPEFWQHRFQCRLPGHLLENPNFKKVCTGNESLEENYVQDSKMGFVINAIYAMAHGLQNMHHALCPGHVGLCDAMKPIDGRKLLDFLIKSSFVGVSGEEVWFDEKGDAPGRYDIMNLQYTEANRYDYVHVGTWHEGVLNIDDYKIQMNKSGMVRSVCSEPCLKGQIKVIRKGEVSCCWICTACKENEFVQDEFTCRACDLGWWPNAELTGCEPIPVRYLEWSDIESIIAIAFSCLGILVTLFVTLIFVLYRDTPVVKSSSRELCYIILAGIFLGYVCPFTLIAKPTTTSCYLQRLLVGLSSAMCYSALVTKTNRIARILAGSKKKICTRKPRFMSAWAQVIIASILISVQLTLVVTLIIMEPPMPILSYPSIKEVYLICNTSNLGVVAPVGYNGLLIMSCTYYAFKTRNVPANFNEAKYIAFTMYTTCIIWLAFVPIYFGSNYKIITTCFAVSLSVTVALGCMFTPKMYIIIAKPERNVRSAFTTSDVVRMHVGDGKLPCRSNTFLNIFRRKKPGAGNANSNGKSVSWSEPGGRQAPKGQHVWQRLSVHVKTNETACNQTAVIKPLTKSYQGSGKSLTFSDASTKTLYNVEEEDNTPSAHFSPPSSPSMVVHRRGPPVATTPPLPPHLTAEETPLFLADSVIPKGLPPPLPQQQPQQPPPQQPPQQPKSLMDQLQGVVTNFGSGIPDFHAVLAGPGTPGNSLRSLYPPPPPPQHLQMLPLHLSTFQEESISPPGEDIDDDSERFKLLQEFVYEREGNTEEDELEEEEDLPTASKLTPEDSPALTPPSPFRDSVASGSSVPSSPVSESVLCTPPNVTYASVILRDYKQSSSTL

## [3H]c1ccc(CC(=O)c2ccc3nc4c(cc3c2)CCCO4)cc1 [[^3H]Compound A]
  Bmax: 6512±1501 fmoles/mg of protein

From patent US7517517B2 (Janssen Pharmaceutica N.V., priority 2002, dated 2009)
